According to PMC6598159 (ACS Central Science, 2019):

Tests used:
[1] = Stability in mouse liver microsomes; format: in vitro ADME; conditions: 2 μM, 40 min, in words
[2] = Stability in human liver microsomes; format: in vitro ADME; conditions: 2 μM, 40 min, in words

[2H]C([2H])([2H])OC=C(C(=O)OC([2H])([2H])[2H])C1CC2c3[nH]c4cccc(OC([2H])([2H])[2H])c4c3CCN2CC1CC (centres unmarked) [mitragynine-d9]
stability in MLM [1]: unchanged
stability in HLM [2]: unchanged
